Values quoted from earlier work as cited in publication PMC3729426 (Chemistry (Weinheim an der Bergstrasse, Germany), 2012).

Test system: MDCK epithelial cells
Conditions: cited from earlier work

**Q.** For nonaarginine, which “half life of proteolytic degradation” value is on record?
**A.** ~ 1400 minutes
